Measured values reported in patent US5679639, “Serine protease derived-polypeptides and anti-peptide antibodies, systems and therapeutic methods for inhibiting coagulation” (The Scripps Research Institute, dated 1997).

Target: activated protein C (APC) (human)
Test: cell-based or functional assay

- half-life of APC amidolytic activity in the presence of the inhibitor: 2 min
B1: recombinant mutant (Arg358)-α1-antitrypsin (other)
chain: EDPQGDAAQKTDTSHHDQDHPTFNKITPNLAEFAFSLYRQLAHQSNSTNIFFSPVSIATAFAMLSLGTKADTHDEILEGLNFNLTEIPEAQIHEGFQELLRTLNQPDSQLQLTTGNGLFLSEGLKLVDKFLEDVKKLYHSEAFTVNFGDTEEAKKQINDYVEKGTQGKIVDLVKELDRDTVFALVNYIFFKGKWERPFEVKDTEEEDFHVDQVTTVKVPMMKRLGMFNIQHCKKLSSWVLLMKYLGNATAIFFLPDEGKLQHLENELTHDIITKFLENEDRRSASLHLPKLSITGTYDLKSVLGQLGITKVFSNGADLSGVTEEAPLKLSKAVHKAVLTIDEKGTEAAGAMFLEAIPRSIPPEVKFNKPFVFLMIEQNTKSPLFMGKVVNPTQK
